Values of other authors as cited in US20260076959A1, “COMBINATION PRODUCT, SALT, AND USE THEREOF IN TREATING NEURODEGENERATIVE DISEASES OR DISORDERS” (SHANGHAI HENLIUS BIOTECH, INC., priority 2023, published 2026).

System: ALS patients
Details: cited from earlier work

Nc1nc2ccc(OC(F)(F)F)cc2s1 [riluzole]
extension of patients' survival: 3 months
